# Test results published in PubChem BioAssay AID455 (Sanford-Burnham Center for Chemical Genomics, 2006).
# The list shows a part of the results, in another mix than the full data. Active and inactive are the calls of the source.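 How the source made its calls: active means a compound raising TNF-alpha-driven VCAM-1 surface staining, with its hit status upheld on visual or statistical review; inactive means the rest, including hits rejected on review.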
# Assay: enhancers of VCAM-1 display on endothelial cells, cell-based, plate reader, pooled HUVEC, TNFa stimulus (AID 455);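 further: 0% = TNFa plus DMSO wells and 100% = a visually confirmed top hit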
# Conditions: HUVEC TNFa-induced VCAM-1 immunofluorescence, stronger effect = higher value, 100% set by best visually verified hit,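 tested at 5 µM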
row,SMILES,augmentation
1,Cc1nn(-c2ccccc2)c2c1P(=O)(N1CCOCC1)N(C)C(c1ccccc1)=N2 (stereo not given),inactive: 0%
2,CCOP1(=S)c2c(C)nn(CCC#N)c2N=C(c2ccccc2F)N1C (stereo not given),inactive: 0%
3,O=C(COc1ccccc1)OC1CN2CCC1CC2 (stereo not given),inactive: 0%
4,COP1(=S)c2c(C)nn(CCC#N)c2N=C(c2ccc(F)cc2)N1C (stereo not given),inactive: 0%
5,O=P(Nc1nccs1)(c1ccccc1)c1ccccc1,inactive: 0%
